One compound from ChEMBL document CHEMBL4364258, “Discovery of novel benzofuran-based compounds with neuroprotective and immunomodulatory properties for Alzheimer's disease treatment” (Eur J Med Chem, 2019) can be followed below.

The chains behind the UniProt entries cited, without tags or fusion partners.
UniProt P21554, whole entry: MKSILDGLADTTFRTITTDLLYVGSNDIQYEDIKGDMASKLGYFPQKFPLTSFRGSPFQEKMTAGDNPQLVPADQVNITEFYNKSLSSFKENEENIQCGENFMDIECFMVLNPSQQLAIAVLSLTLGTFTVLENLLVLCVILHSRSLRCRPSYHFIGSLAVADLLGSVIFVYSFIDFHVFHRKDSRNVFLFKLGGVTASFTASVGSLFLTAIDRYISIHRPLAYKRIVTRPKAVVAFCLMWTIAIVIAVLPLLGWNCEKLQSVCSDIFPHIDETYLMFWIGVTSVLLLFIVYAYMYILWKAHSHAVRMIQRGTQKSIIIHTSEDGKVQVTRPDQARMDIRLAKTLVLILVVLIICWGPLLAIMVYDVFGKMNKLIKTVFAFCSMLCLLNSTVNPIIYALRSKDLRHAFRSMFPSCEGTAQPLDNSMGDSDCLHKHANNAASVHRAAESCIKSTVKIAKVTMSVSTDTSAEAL

Experiment [1] has as its target T1, Cannabinoid receptor 1 (Homo sapiens, UniProt P21554). Briefly: Displacement of 3[H]-CP55940 from human recombinant CB1 receptor expressed in HEK293 cell membranes measured after 90 mins.
For experiment [2], the target named is T1, Cannabinoid receptor 1. Briefly: Displacement of 3[H]-CP55940 from human recombinant CB1 receptor expressed in HEK293 cell membranes measured after 90 mins by Cheng-Prusoff equation analysis.

Consider `Cc1ccc(Cn2nc(C(=O)N[C@@H]3C(C)(C)[C@@H]4CC[C@@]3(C)C4)cc2-c2ccc(Cl)c(C)c2)cc1`, for which, in experiment [1], the IC50 (commonly the concentration needed to halve the response being measured) is 542 µM. Further, the inhibition constant (Ki) (usually a dissociation constant, usually derived from enzyme kinetics or from competition with a known ligand) in experiment [2] was 117 µM.
